Measurements from ChEMBL document CHEMBL6121003, “Design, synthesis, and pharmacological evaluation of triazine-based PI3K/mTOR inhibitors for the potential treatment of non-small cell lung cancer” (Eur J Med Chem, 2025).
Calls of active or inactive are those of the source. No cut-off for these calls is given here.

By UniProt entry, the sequences of proteins in these tests, tags left out. Where a name states a change or a piece, a line headed by the entry shows the natural chain unless it says otherwise.
UniProt P06239: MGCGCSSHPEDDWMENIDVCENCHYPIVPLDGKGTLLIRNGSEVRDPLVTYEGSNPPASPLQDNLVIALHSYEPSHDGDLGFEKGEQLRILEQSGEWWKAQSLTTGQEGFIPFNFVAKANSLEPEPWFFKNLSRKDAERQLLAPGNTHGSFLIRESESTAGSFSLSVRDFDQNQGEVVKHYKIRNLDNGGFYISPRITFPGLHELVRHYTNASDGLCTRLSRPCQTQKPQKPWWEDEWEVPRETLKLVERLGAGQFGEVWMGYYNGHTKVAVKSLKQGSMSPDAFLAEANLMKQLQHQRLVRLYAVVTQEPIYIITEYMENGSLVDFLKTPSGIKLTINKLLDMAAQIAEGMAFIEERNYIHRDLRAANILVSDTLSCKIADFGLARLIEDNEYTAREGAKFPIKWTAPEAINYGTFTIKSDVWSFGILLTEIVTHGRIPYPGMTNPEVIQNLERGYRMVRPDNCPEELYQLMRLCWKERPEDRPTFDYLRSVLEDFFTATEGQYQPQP
UniProt Q06187: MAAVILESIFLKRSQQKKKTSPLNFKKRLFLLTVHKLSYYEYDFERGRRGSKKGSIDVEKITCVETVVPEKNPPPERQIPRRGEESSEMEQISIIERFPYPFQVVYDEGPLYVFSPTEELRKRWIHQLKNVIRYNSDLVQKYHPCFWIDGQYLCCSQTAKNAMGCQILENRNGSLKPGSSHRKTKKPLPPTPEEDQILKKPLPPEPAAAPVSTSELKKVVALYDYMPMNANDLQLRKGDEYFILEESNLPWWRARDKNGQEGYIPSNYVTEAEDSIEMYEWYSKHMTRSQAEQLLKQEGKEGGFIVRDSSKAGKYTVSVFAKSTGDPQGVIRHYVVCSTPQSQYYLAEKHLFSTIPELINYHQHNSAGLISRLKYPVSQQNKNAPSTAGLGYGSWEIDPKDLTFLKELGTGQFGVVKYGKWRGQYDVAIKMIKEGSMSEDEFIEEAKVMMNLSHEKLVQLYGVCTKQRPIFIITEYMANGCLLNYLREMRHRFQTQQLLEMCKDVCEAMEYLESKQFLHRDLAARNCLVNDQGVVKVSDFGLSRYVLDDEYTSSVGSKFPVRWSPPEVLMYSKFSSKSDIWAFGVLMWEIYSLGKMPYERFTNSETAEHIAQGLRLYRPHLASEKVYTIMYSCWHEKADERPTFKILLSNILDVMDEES
UniProt Q05397, whole entry, looked up: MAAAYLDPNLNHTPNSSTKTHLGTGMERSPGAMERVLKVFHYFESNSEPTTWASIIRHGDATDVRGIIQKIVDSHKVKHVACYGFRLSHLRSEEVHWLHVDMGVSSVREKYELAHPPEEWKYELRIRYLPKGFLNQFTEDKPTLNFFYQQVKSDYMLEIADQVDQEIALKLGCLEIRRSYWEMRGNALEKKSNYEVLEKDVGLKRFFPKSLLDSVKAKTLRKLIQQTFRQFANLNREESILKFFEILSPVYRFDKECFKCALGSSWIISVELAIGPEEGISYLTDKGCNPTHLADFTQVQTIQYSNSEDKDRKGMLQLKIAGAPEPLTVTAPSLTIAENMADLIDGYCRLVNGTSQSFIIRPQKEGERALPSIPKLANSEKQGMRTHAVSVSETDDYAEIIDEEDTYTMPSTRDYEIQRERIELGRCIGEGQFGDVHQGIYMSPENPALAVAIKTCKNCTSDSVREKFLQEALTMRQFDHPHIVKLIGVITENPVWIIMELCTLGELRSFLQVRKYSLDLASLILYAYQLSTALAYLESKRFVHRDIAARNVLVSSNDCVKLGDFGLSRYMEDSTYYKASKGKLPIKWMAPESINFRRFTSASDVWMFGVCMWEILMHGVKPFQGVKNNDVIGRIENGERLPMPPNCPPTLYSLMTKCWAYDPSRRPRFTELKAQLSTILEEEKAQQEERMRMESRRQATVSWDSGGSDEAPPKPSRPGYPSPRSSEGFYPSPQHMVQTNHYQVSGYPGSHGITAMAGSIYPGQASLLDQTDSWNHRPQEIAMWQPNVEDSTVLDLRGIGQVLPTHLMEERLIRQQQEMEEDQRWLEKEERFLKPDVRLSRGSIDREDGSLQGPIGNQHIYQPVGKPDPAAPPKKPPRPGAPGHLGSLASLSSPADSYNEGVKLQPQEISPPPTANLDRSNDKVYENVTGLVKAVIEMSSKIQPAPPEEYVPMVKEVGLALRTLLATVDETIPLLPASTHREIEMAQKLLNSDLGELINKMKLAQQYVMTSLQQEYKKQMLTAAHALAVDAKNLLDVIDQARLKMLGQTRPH
UniProt Q96GD4, whole entry: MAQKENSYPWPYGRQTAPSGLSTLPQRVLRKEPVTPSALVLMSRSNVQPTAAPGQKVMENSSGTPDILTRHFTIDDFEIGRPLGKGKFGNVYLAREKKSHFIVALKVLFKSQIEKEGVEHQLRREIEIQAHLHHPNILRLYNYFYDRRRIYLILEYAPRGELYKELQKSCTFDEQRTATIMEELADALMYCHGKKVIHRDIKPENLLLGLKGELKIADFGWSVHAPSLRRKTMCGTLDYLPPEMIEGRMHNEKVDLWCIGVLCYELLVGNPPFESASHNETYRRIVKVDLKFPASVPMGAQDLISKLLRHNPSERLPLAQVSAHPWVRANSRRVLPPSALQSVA
UniProt Q9UM73: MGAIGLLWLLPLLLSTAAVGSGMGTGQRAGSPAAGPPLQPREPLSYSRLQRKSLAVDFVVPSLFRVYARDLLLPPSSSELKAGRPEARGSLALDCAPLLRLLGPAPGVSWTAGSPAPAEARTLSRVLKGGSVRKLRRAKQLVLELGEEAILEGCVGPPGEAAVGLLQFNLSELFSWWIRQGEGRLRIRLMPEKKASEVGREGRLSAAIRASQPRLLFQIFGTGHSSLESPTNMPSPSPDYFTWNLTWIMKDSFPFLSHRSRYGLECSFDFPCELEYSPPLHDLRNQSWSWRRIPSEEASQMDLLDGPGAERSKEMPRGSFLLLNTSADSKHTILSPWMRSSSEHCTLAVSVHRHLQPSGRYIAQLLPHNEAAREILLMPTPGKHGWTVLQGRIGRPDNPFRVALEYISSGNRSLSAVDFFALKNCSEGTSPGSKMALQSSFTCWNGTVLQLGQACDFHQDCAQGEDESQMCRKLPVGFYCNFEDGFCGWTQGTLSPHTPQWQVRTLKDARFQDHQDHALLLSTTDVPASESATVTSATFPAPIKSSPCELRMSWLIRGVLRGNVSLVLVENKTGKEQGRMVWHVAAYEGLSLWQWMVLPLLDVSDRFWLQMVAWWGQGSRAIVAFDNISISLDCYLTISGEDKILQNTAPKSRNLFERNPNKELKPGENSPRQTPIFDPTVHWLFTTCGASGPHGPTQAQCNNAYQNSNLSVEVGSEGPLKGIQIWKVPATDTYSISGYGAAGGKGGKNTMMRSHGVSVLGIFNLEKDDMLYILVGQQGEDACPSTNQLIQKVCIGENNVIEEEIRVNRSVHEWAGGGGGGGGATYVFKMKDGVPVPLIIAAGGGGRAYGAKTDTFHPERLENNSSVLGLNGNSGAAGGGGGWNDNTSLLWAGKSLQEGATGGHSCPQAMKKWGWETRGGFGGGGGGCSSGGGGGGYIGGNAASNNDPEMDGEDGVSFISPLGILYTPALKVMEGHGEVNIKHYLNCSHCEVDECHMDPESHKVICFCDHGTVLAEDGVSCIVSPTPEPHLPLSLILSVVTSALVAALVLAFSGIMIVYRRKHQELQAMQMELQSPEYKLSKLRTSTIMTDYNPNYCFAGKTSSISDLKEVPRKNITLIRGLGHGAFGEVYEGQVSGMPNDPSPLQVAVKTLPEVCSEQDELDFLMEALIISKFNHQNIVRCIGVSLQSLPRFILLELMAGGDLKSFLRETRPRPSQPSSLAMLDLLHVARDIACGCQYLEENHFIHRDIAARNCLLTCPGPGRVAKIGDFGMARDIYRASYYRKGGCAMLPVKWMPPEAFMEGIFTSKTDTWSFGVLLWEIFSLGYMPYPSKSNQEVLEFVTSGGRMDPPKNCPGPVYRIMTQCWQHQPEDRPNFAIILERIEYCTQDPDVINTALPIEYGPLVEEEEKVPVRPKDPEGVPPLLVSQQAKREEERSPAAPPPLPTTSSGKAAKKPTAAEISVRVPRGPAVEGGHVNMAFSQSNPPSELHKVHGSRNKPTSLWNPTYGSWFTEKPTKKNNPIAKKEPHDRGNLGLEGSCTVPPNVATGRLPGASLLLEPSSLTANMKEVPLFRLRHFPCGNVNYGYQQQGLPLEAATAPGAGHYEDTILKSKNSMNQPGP

Key:
[1] = target: Epidermal growth factor receptor (Homo sapiens) (UniProt P00533); settings: HCC827, dose 8.0 nM, time 24.0 hrs
[2] = target: Tyrosine-protein kinase Lck (Homo sapiens) (UniProt P06239); settings: dose 250.0 nM
[3] = target: Tyrosine-protein kinase BTK (Homo sapiens) (UniProt Q06187); settings: dose 250.0 nM
[4] = target: Focal adhesion kinase 1 (Homo sapiens) (UniProt Q05397); settings: dose 250.0 nM
[5] = target: Aurora kinase B (Homo sapiens) (UniProt Q96GD4); settings: dose 250.0 nM
[6] = target: ALK tyrosine kinase receptor (Homo sapiens) (UniProt Q9UM73); settings: dose 250.0 nM
[7] = target: T1, Aurora kinase A (Homo sapiens) (UniProt O14965); settings: dose 250.0 nM
T1 sequence (whole entry): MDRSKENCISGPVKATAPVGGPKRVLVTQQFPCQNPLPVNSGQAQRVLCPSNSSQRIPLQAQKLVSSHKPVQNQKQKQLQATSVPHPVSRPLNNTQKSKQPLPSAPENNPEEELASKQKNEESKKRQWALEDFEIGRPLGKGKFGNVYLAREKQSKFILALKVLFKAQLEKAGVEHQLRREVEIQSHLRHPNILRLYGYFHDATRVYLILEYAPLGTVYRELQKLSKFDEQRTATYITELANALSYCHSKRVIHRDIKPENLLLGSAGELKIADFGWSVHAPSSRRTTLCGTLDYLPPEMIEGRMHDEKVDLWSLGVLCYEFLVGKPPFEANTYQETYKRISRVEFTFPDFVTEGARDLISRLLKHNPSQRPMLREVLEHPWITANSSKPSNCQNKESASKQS

**Q.** Which results are given for `O=C(Nc1ccc(C(=O)N2CCC[C@H]2CO)cc1)Nc1ccc(-c2nc(N3CCOCC3)nc(N3CCOCC3)n2)cc1`?
**A.** inhibition [1]: inactive; inhibition [2]: > 80%; inhibition [3]: > 80%; inhibition [4]: > 80%; inhibition [5]: > 80%; inhibition [6]: > 80%; inhibition [7]: > 80%
